This experiment concerns the target T1, lecithin retinol acyl transferase (LRAT) (Bos taurus, UniProt Q9BGL2).
T1 sequence (Q9BGL2 1-230): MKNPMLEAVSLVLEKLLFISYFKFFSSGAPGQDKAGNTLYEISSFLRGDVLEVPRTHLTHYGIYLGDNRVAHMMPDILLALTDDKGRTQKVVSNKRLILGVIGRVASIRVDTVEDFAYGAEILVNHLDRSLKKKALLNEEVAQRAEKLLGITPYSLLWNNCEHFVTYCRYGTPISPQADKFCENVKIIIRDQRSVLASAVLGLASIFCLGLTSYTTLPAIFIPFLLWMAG
As to the kind of experiment: in vitro Microsomal Assay of retinol esterification, LRAT catalysed (retinyl laurate formation). Particulars: read-out: % INHIBITION, LRAT.

We go through 1 molecule from patent publication EP1200059B1, “SKIN CARE COMPOSITION” (UNILEVER PLC, priority 1999, dated 2001).

SMILES strings stand for the structures.

A word on the inhibition: it is the relative decrease from the control value, in per cent.

As to `CC(C)(O)CCCC1=CCC(C=O)CC1` (stereo not shown) [Lyral], the inhibition at 100 µM came out at 71%.
